# Vif-APOBEC3G blk: inhibitors of Vif-APOBEC3G interaction; Q9HC16; HeLa A3G-eYFP + Vif (tagged APOBEC3G with the HIV-1 protein that degrades it), YFP fluorescence, overnight; Potency, µM (top dose mostly 46.1 µM), without a hit: at the highest dose activity, negative = active, actives largely listed as inhibitors; hit rate 0.076% among 410,000; AID 602310; further: potency means the concentration at half of the fitted maximal effect; on the % scale 0 is the no-effect control and ±100 the full control effect; nearly all actives have a fitted effect of over 60% in size
#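 HeLa cells stably expressing Vif and C-terminally eYFP-tagged A3G, seeded overnight at 37 deg C, then exposed to compound by pintool overnight at 37 deg C. Rise in yellow fluorescence (Ex 488/Em 500-530, Acumen) marks blocked Vif-driven A3G degradation.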
# Vif-A3F inh: Vif-A3F binding inhibition. HeLa A3F-eYFP + Vif (tagged APOBEC3F with the HIV-1 protein that degrades it), YFP fluorescence increase. hit rate 0.2% among 390,000. Potency, µM (top dose mostly 46.1 µM), for the others: at the top dose activity, negative = active; further: potency means the concentration at half of the fitted maximal effect; % of control where 0% means no effect; nearly all actives have a fitted effect of over 65% in size
#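 Fluorescence increase (Ex 488/Em 500-530) after overnight compound treatment at 37 deg C flags inhibition of Vif-driven A3F-eYFP loss in stable HeLa A3F-eYFP/Vif cells seeded overnight beforehand.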
# Epigenetic derep: regulators of epigenetic silencing causing reporter derepression in mouse cells | Potency, µM (series often up to 53.9 µM), for inactives: top-dose GFP activation, hits mostly activators | AID 1865 | hit rate 0.2% among 280,000 | murine LDR cells, GFP reporter derepression, 30 h; further: potency means the concentration at half of the fitted maximal effect; % of control where 0% means no effect; nearly all actives have a fitted effect of over 60% in size
#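 Derepression of a silenced CMV-GFP reporter in murine LDR cells is scored by enumerating GFP-positive cells with a laser-scanning microplate cytometer after 30 hours of treatment at 37 C.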
# miR-21 reporter: miR-21 reporter, rising signal | HeLa miR-21 FLuc reporter, luciferase, 48 h | Potency, µM (highest dose often 38.3 µM), for inactives: at the top dose reporter change, positive = more light | 340,000 tested, under 10 active | AID 2288; active = well fitted rising curve with a large enough effect; inconclusive = small, poorly fitted or top-dose-only effect; inactive = no such curve, though single readings can be large or run the other way;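 further: % of control where 0% means no effect; miR-21 action dims this reporter so a rising signal means less miR-21 action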
#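 HeLa miR-21-FLuc reporter line, endogenous miR-21; 2000 cells/well in DMEM/10% FBS; compound titration up to ~40uM final, 48 h, 37 degree Celsius; luciferase detection reagent, 15 min lysis, CCD luminescence.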
# The depositor's hits bear a star; ? = inconclusive; · = not tested or not shown. Shown are actives, neighbours in structure and some others; about 0.34% of the full set was active somewhere. The call rests on the fitted dose curve; in most records, active means well fitted curve in the direction sought with a large enough effect; inconclusive means small, poorly fitted or top-dose-only effect, or another doubt; inactive means no such curve, though single readings can be large; an effect the other way counts as inactive or inconclusive.
(1) COc1ccccc1NS(=O)(=O)c1cc([N+](=O)[O-])ccc1N/N=C/c1sc(N2CCOCC2)nc1-c1ccccc1
(2) CCOc1ccccc1NC(=O)c1ccc2c(c1)CCCN2S(C)(=O)=O
(3) O=C(NCCc1nc2ccccc2n1CCOc1cccc2ccccc12)C1CCCCC1
(4) Cn1c(=O)c2c(nc(SCC(=O)Nc3ccc(OC(F)(F)F)cc3)n2Cc2cccc(C(F)(F)F)c2)n(C)c1=O
(5) CC(=O)c1ccc(NC(=O)Cn2c3ncccc3c(=O)n2-c2ccc(C)cc2)cc1
(6) Cc1cccnc1NCc1ccc(O)c2ncccc12

assay / compound	1	2	3	4	5	6
Vif-APOBEC3G blk	?	0%	0%	2%	3%	-16%
Vif-A3F inh	?	1%	·	5%	0%	0%
Epigenetic derep	2.8µM*	?	·	?	3%	6.3µM*
miR-21 reporter	-15%	-14%	·	19%	5%	?

(7) Nc1nonc1C(=O)NCCNCc1ccc(Cl)c(Cl)c1
(8) O=C(N/N=C/c1ccc(-c2ccc([N+](=O)[O-])cc2)o1)[C@H]1C[C@@H]1c1ccccc1
(9) O=C(O)c1cccc(-c2ccc(/C=N/Nc3ccc([N+](=O)[O-])cc3)o2)c1
(10) CC(C)(C)NC(=S)N/N=C\c1ccc(-c2ccc([N+](=O)[O-])cc2)o1
(11) CCCCC(=O)N/N=C/c1ccc(-c2ccc([N+](=O)[O-])cc2)o1
(12) NC(=S)N/N=C/c1ccc(-c2cccc([N+](=O)[O-])c2)o1

assay / compound	7	8	9	10	11	12
Vif-APOBEC3G blk	0%	-6%	?	10µM*	-3%	-4%
Vif-A3F inh	6%	7.1µM*	22µM*	25µM*	-2%	?
Epigenetic derep	-1%	?	5%	13µM*	-1%	16µM*
miR-21 reporter	1%	-1%	-12%	-25%	-3%	-15%

(13) COc1cc2c(NC3CCN(C(C)C)CC3)nc(N3CCCN(C)CC3)nc2cc1OCCCN1CCCC1
(14) NC(N)=NCCC[C@H](NC(=O)[C@@H](N)Cc1ccc(O)cc1)C(=O)O
(15) COc1ccc(-c2nc3cc(C(C)C)ccc3o2)cc1NC(=O)c1ccc(C)c(Cl)c1
(16) O=C(O)c1ccc(-c2ccc(/C=N/Nc3ccc([N+](=O)[O-])cc3)o2)cc1
(17) S=C(Nc1ccccc1)Nc1nccs1
(18) Fc1ccc(NC(=S)Nc2nccs2)cc1

assay / compound	13	14	15	16	17	18
Vif-APOBEC3G blk	-3%	·	1%	10µM*	-22%	-1%
Vif-A3F inh	·	·	4%	?	-21%	?
Epigenetic derep	·	0%	0%	?	13µM*	15%
miR-21 reporter	·	·	-2%	-17%	-27%	-3%

(19) O=C(O)c1ccc2nc(-c3cc4cccc(O)c4oc3=O)[nH]c2c1
(20) C=CCc1cccc2cc(-c3nc4ccc(C)cc4[nH]3)c(=O)oc12
(21) COc1cccc(C2Nc3ccc4ccccc4c3C3=C2C(=O)CCC3)c1O (stereo not given)
(22) CCCCNc1c(-c2ccc(SC3CCCCC3)cc2)nc2cnccn12
(23) CCOC(=O)c1ccc(/C=C2/C=C(c3ccccc3)N(c3ccc(Cl)c(C(=O)O)c3)C2=O)cc1
(24) COc1ccc(-c2nc3sc(CCNC(=O)C(=O)Nc4c(C)cccc4C)c(C)n3n2)cc1

assay / compound	19	20	21	22	23	24
Vif-APOBEC3G blk	·	-3%	?	3.2µM*	?	2%
Vif-A3F inh	·	·	11µM*	?	13µM*	-2%
Epigenetic derep	-1%	4µM*	·	·	0%	14%
miR-21 reporter	?	-49%	-5%	·	26%	-18%

(25) COc1ccc2nc3ccccc3nc2c1NC(=O)c1ccc(Cl)cc1
(26) COc1ccc2nc3ccccc3nc2c1NC(=O)c1ccc(Br)cc1
(27) COc1ccccc1Oc1ccc(NC(=O)c2ccc(Cl)cc2)cc1
(28) COc1cc(NC(=O)c2ccc(Br)cc2)c(OC)cc1NC(=O)c1ccccc1
(29) Nc1nc(N)c2c(Oc3ccc(F)cc3)cccc2n1
(30) C/C(=N\Nc1nccnc1Cl)c1ccc(O)cc1

assay / compound	25	26	27	28	29	30
Vif-APOBEC3G blk	-11%	?	3%	-3%	1%	-1%
Vif-A3F inh	11µM*	6.3µM*	2%	-11%	·	2%
Epigenetic derep	?	5%	2%	·	·	·
miR-21 reporter	-9%	0%	-3%	-5%	·	-52%

# Record cards, as listed above. Order of screens: Vif-APOBEC3G blk | Vif-A3F inh | Epigenetic derep | miR-21 reporter
# `COc1ccc2nc3ccccc3nc2c1NC(=O)c1ccc(Br)cc1` in the list: ? | 6.3µM* | 5% | 0%
# `COc1ccccc1Oc1ccc(NC(=O)c2ccc(Cl)cc2)cc1` in the list: 3% | 2% | 2% | -3%

# The list continues.
(31) C/C(=N\Nc1nccnc1Cl)c1ccc(Cl)c(Cl)c1
(32) CCOC(=O)/C=c1\s/c(=C\c2ccc3cc(OC)ccc3c2)c(=O)n1CC(=O)NCc1ccc2c(c1)OCO2
(33) CCOC(=O)/C=c1/s/c(=C\c2c(OC)ccc3ccccc23)c(=O)n1CC(=O)NCC1CCCO1 (stereo not given)
(34) O=S(=O)(c1ccc(Br)cc1)N1CCN(c2nc(-c3cccs3)nc3ccccc23)CC1
(35) CCC(C)NC(=O)CSc1nc2cc3c(cc2c(=O)n1Cc1ccc(C(=O)NCCc2ccc(OC)c(OC)c2)cc1)OCO3 (stereo not given)
(36) N.N.N.N.N.N.N.N.N.N.N.N.N.N.O.O.[Cl-].[Cl-].[Cl-].[Cl-].[Cl-].[Cl-].[Ru].[Ru].[Ru]

assay / compound	31	32	33	34	35	36
Vif-APOBEC3G blk	0%	2%	11µM*	3%	-4%	·
Vif-A3F inh	25µM*	-3%	?	·	·	·
Epigenetic derep	·	7.9µM*	·	·	11µM*	0%
miR-21 reporter	-46%	4%	·	·	10%	·

(37) COc1cccc(C2CC(c3ccccc3)=NN2S(=O)(=O)c2ccc(C)cc2)c1OC (stereo not given)
(38) COc1ccccc1C1CC(c2ccccc2)=NN1S(=O)(=O)c1ccccc1 (stereo not given)
(39) CCOc1ccccc1N(CC)C(=O)Cn1ncc2c1-c1ccccc1OC2
(40) CC(C)NC(=O)c1ccc(CSc2nc3ccncc3n2Cc2cccc(F)c2)cc1
(41) O=C1COc2ccc(C(=O)CSc3nc4ccccc4c(=O)n3-c3ccc(Cl)c(Cl)c3)cc2N1
(42) CCCCOC(=O)/C(C#N)=C/c1ccc(-c2ccc(Br)cc2)o1

assay / compound	37	38	39	40	41	42
Vif-APOBEC3G blk	?	-5%	4%	-7%	?	3%
Vif-A3F inh	25µM*	2%	-8%	4%	10µM*	-4%
Epigenetic derep	?	2%	0%	-4%	?	-1%
miR-21 reporter	-10%	-3%	-2%	-6%	-5%	-7%

(43) CCOC(=O)c1c(S(=O)(=O)N2CCCC(C(=O)N3CCN(c4ccc(F)cc4)CC3)C2)c(C)n(C)c1C (stereo not given)
(44) CSc1ccc(CCNC(=O)c2ccc(CS(=O)(=O)c3ccc(Br)cc3)o2)cc1
(45) Cc1ccc(C(=O)NN2C(=O)/C(=C/c3cn(C)c4ccccc34)SC2=S)cc1
(46) Cn1cc(/C=C2\SC(=S)N(NC(=O)c3ccccc3Cl)C2=O)c2ccccc21
(47) Cc1ccc(/C=C2/NC(=O)N(Cc3ccccc3)C2=O)s1
(48) Cc1cccc(CN2C(=O)N/C(=C/c3ccc(C)s3)C2=O)c1

assay / compound	43	44	45	46	47	48
Vif-APOBEC3G blk	2%	-3%	-12%	?	?	?
Vif-A3F inh	-7%	5%	?	11µM*	22µM*	?
Epigenetic derep	-1%	-2%	6%	0%	25µM*	?
miR-21 reporter	1%	19%	5%	-8%	-22%	14%

# Some entries already given, limited to Epigenetic derep and Vif-A3F inh:
nr | Structure | Epigenetic derep | Vif-A3F inh
43 | CCOC(=O)c1c(S(=O)(=O)N2CCCC(C(=O)N3CCN(c4ccc(F)cc4)CC3)C2)c(C)n(C)c1C (stereo not given) | -1% | -7%
48 | Cc1cccc(CN2C(=O)N/C(=C/c3ccc(C)s3)C2=O)c1 | ? | ?
44 | CSc1ccc(CCNC(=O)c2ccc(CS(=O)(=O)c3ccc(Br)cc3)o2)cc1 | -2% | 5%
46 | Cn1cc(/C=C2\SC(=S)N(NC(=O)c3ccccc3Cl)C2=O)c2ccccc21 | 0% | 11µM*

# Remaining list, next part.
(49) CC[n+]1c(/C=C/N(C)c2ccccc2)oc2ccc(F)cc21
(50) CC/C(=C\c1oc2cc3ccccc3cc2[n+]1CC)Nc1ccccc1
(51) O=S(=O)([O-])CCC[n+]1c(/C=C\Nc2ccccc2)oc2ccc(-c3ccccc3)cc21
(52) CC[n+]1c(/C=C/Nc2ccccc2)oc2ccc(OC)cc21
(53) CC[n+]1c(/C=C/Nc2ccccc2)oc2ccccc21
(54) CCn1c(/C=C/N(C)c2ccccc2)[n+](CC)c2ccc(Cl)cc21

assay / compound	49	50	51	52	53	54
Vif-APOBEC3G blk	4µM*	0%	·	?	7.9µM*	4%
Vif-A3F inh	?	-2%	·	5.6µM*	11µM*	-2%
Epigenetic derep	11%	11%	?	13µM*	16µM*	7%
miR-21 reporter	?	9%	-1%	11%	19%	?
